These results are taken from US20120046305A1.

Sequences of proteins named here, by UniProt entry; tags and fusion partners are left off.
UniProt O75762, whole entry: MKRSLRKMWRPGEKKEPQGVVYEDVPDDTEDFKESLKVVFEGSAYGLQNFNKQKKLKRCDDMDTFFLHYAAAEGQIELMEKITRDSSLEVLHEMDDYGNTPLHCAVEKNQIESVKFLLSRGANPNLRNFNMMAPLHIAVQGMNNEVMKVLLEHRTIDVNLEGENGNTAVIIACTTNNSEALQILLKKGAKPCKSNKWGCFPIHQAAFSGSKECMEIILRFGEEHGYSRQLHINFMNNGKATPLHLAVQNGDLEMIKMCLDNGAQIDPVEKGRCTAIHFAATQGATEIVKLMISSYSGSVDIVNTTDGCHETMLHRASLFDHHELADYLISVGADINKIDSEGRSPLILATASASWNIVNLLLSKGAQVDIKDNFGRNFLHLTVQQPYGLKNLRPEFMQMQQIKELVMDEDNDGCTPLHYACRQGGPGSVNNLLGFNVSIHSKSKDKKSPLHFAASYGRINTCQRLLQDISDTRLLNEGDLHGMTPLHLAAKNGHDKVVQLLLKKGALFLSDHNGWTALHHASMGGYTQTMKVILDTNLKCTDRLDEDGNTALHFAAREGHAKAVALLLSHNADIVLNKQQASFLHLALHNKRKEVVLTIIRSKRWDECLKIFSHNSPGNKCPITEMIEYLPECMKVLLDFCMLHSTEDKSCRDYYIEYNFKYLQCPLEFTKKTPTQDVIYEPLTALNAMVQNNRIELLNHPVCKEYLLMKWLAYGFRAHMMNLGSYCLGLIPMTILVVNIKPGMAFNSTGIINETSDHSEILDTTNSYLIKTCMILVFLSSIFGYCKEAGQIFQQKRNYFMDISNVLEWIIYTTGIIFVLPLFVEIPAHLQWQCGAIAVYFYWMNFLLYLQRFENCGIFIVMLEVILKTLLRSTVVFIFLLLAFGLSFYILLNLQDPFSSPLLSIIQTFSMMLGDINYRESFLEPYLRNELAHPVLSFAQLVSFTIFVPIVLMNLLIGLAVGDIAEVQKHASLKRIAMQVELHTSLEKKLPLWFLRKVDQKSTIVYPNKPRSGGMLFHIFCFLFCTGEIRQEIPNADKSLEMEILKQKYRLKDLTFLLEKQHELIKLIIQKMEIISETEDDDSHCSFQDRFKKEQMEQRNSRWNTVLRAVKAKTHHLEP

Structures are written as SMILES.

This experiment concerns the target TRPA1 channel (Homo sapiens, UniProt O75762). As to the kind of experiment: Patch clamp experiments (perforated patch, AITC-activated TRPA1 current). The conditions noted are these: read-out: activity as measured in the patch clamp assay (IC50), Table 1; HEK293/TREx cells expressing TRPA1; current activated by 5 μM AITC; Table 1 compounds. An excerpt:
Patch clamp experiments permit the detection of currents through the TRPA1 channel in the cell line described above. To permit recording of current at a stable level and prevent the “rundown” observed by other labs, it is necessary to use the perforated patch technique, which prevents dialysis of the cytoplasm with the pipette solution. In normal whole-cell patch clamp recordings, a glass electrode is brought into contact with a single cell and a high-resistance (gigaohm) seal is established with the cell membrane. The membrane is then ruptured to achieve the whole-cell configuration, permitting control of the voltage of the cell membrane and measurement of currents flowing across the membrane using the amplifier attached to the electrode and resulting in the replacement of cytoplasm with the pipette solution. […]
TRPA1 cells were induced 20-48 hours, removed from growth plates, and replated at low density (to attain good single-cell physical separation) on glass coverslips for measurement. […] Currents elicited were quantified at −80 mV and +80 mV. The internal solution consisted of 140 mM cesium aspartate, 10 mM EGTA, 2.2 mM CaCl2, 2.08 mM MgCl2 and 10 mM HEPES, pH 7.2, with 50 nM calculated free Ca^2+ and 60 mg/ml amphotericin added immediately prior to experiments. […]
(The patch-clamp technique gives a direct electrical read-out from membranes.)

Usually IC50 stands for the midpoint of a concentration-inhibition curve. `Cn1c(=O)c2c(ncn2CC(=O)NCC(C)(c2ccccc2)c2ccccc2)n(C)c1=O`: the half-inhibitory concentration (IC50) is greater than 10 µM.
To `Cc1ccc(NC(=O)C(C)n2cnc3c2c(=O)n(C)c(=O)n3C)cc1` (centres unmarked) belongs less than 1 µM.
